Results taken from article PMC3943356 (Bioorganic & medicinal chemistry letters, 2013).

Tested on: VGLUT
Assay: Inhibition of 3H-L-Glu uptake into synaptic vesicles prepared from rat brain
Settings: compound at 250 µM; 3H-L-Glu 250 µM

Question: For `C[C@]12CC[C@@H]3c4ccc(OS(=O)(=O)O)cc4CC[C@H]3[C@@H]1CCC2=O` [Estrone sulfate], which “reduction (block) of L-Glu uptake” value is on record?
Answer: The value was 50%.

Question: With `CC(=O)[C@H]1CC[C@H]2[C@@H]3CC[C@@H]4C[C@H](O)CC[C@]4(C)[C@H]3CC[C@]12C` [Pregnanolone] as the compound, how does the “reduction (block) of L-Glu uptake” value read?
Answer: The value was “did not block L-Glu uptake to any appreciable level”.

Structures can show the parent of a compound that is named as a salt.
